The values that follow come from patent US12146167B2 (priority 2021, dated 2024).

In this test the test system is Cg_MetY_P2T (O-acetylhomoserine sulfhydrylase variant metY_P2T, SEQ ID NO: 6). The conditions noted are these: 1 nmol polypeptide, O-acetyl homoserine-HCl, phosphate buffer 0.1 M, pH 7.5, 120 min at 50° C., LC-MS QQQ.

This is a selection: effects in other tests are not listed, and their absence says nothing.

For methyl P-methylphosphinate, the Product entry was “yes”.
